For one molecule, IC50 results are on record in ChEMBL document CHEMBL1126802, “Structure-affinity relationship studies on 5-HT1A receptor ligands. 1. Heterobicyclic phenylpiperazines with N4-alkyl substituents” (J Med Chem, 1993).

By UniProt entry, the sequences of proteins in these tests, tags left out. Where a name states a change or a piece, a line headed by the entry shows the natural chain unless it says otherwise.
UniProt P42866: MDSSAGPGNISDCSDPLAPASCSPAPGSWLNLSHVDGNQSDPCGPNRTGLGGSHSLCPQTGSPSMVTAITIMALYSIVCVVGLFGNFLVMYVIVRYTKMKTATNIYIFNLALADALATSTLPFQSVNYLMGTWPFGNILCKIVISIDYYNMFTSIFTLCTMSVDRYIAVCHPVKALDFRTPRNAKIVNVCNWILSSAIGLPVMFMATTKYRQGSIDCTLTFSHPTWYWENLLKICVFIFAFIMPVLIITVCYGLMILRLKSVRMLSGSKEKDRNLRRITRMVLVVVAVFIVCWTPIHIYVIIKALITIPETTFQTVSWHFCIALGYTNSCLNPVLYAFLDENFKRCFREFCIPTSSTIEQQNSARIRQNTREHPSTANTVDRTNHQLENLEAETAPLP
UniProt P32300: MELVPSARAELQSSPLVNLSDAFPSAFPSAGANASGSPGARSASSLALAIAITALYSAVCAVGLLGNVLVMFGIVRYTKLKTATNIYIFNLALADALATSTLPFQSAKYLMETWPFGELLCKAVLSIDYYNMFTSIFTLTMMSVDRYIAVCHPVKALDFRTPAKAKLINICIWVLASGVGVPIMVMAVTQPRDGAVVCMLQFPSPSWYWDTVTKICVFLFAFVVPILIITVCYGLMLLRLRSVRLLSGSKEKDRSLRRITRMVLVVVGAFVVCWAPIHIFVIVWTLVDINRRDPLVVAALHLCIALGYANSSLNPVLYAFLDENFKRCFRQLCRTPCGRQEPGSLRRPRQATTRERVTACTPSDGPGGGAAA
UniProt P33534: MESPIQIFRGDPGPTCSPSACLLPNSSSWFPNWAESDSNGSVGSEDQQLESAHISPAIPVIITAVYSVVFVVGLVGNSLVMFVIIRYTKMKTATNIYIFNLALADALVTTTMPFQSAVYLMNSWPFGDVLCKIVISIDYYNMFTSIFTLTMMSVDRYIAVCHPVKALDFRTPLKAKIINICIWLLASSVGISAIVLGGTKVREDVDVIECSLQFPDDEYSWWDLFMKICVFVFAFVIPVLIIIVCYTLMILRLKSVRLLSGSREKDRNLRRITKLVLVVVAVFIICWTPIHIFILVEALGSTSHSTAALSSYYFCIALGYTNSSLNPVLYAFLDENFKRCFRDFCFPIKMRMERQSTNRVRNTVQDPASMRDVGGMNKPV

Broadly, the IC50 is the concentration at which inhibition is half-maximal. Lower therefore signals greater potency.

The target in this experiment is Opioid receptor (Mus musculus, UniProt P42866+P32300+P33534). The experiment in a line: Tested for displacement of radioligand [3H]-Naloxone from opiate receptor. It is filed as protein assay.

With `CCOC(=O)C1(c2ccccc2)CCN(C)CC1` [MEPERIDINE], the IC50 turned out to be 500 nM. In other words, the sub-micromolar range.
